Measurements: PMC8694140, “Synthesis and photobiological applications of naphthalimide–benzothiazole conjugates: cytotoxicity and topoisomerase IIα inhibition” (RSC Advances, 2021)

Sequences of proteins named here, by UniProt entry; tags and fusion partners are left off. A change or cut given only in a name is not applied to a line headed by its entry.
UniProt P11388: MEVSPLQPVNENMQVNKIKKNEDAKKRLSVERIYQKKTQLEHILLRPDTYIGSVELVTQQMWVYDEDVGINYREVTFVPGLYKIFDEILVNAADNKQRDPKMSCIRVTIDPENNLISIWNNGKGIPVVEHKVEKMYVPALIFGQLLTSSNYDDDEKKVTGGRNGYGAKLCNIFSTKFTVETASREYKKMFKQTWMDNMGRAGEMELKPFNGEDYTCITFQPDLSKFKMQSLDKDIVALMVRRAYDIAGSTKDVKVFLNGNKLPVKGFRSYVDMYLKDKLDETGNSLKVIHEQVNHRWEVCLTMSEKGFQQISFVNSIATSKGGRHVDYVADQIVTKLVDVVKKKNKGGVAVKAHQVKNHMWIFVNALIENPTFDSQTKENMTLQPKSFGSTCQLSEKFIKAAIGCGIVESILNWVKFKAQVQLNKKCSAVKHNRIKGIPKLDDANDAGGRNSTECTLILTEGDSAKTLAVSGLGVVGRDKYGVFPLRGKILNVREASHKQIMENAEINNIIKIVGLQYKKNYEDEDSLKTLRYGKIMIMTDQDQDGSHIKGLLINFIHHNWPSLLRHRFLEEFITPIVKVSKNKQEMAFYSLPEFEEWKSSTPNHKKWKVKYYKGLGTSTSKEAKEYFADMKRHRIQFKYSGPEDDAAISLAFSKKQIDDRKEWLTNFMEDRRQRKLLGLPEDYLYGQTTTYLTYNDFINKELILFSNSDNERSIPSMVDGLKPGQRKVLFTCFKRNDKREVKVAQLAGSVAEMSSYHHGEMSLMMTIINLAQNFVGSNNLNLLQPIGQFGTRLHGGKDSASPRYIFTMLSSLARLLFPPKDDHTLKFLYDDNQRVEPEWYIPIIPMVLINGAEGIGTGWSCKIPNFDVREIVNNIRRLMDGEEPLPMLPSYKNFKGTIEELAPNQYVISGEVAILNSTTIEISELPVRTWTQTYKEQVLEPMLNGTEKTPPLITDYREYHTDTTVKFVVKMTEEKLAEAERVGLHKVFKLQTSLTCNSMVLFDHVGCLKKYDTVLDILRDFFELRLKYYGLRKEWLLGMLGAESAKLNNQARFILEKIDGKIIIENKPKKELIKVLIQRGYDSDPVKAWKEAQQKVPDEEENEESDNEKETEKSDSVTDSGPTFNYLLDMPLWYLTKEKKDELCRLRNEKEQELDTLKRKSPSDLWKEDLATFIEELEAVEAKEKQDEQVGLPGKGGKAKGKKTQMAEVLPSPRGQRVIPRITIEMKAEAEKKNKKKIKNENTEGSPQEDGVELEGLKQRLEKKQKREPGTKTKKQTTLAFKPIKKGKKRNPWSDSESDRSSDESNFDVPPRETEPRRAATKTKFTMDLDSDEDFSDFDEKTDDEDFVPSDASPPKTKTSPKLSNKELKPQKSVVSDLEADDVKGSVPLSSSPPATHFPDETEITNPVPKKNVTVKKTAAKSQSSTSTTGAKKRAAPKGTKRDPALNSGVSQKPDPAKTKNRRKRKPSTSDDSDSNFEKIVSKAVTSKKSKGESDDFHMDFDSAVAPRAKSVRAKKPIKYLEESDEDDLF

Target: human type IIa topoisomerase (Homo sapiens, UniProt P11388)
Assay: Relaxation assay of human topoisomerase IIa (supercoiled pHOT1 plasmid DNA, agarose gel)
Assay type: biochemical
Conditions: positive control, 25 μM per figure legend
Description: The unwinding of DNA double helix is highly recommended at the time of replication and transcription in cell division which causes the helical tension to rise in the rest of the molecule of DNA. Topoisomerase, the nuclear enzyme, drives the topological changes and releases the tension of DNA, thus, necessary for cell proliferation.[28,29] Especially human type II topoisomerase (topo IIa) has been found an effective target in cancer treatment.[30,31] […] In TOPO II inhibition assay, supercoiled plasmid DNA was treated with human topoisomerase II in the presence of the reference compound (etoposide) or tested compounds at concentrations of 1, 5, 10, and 50 μM.
A further experiment was repeated to determine the more accurate concentration value of compounds required for topoisomerase inhibition. The concentrations 0.1, 0.5, 1, 1.5, 2, and 3 μM were taken for both compounds (Fig. 3).
The assay of human type IIa topoisomerase mediated relaxation of supercoiled plasmid DNA was performed using reaction buffer (20 μl) (5 mM dithiothreitol, 0.5 M Tris–HCl, pH 8.0, 20 mM ATP, 1.50 M NaCl, 300 μg ml^−1 BSA, and 100 mM MgCl2) having supercoiled pHOT1 plasmid DNA (500 ng) and human type IIa topoisomerase enzyme (4 units). The reaction mixtures were incubated for 30 min at 37 °C, followed by adding 10% sodium dodecyl sulfate (2 μl) to stop the reaction. […]

`COc1cc([C@@H]2c3cc4c(cc3[C@@H](O[C@@H]3O[C@@H]5CO[C@@H](C)O[C@H]5[C@H](O)[C@H]3O)[C@H]3COC(=O)[C@H]23)OCO4)cc(OC)c1O` [Etoposide, reference compound] was tested, and the “inhibition of topoisomerase II by reference compound” value was “Inhibition of topoisomerase II was detected”.
